Molecular target: Plasma kallikrein (Homo sapiens, UniProt P03952)
Assay: In-vitro Plasma Kallikrein Inhibition: Enzymatic reactions were conducted in ⿿assay buffer⿿, comprising 50 mM Hepes/NaOH at pH 7.8, 150 mM NaCl, 1 mM EDTA and 0.05% (w/v) CHAPS. For the determination of IC50 values, the assays were performed at room temperature in 384-well plates with a total assay volume of 25.25 ul per well. The test compound was dissolved in 90% (v/v) DMSO/water. For the assays, 250 nL of the 90% (v/v) DMSO/water solution or compound solution were added per well, followed by the addition of 12.5 ul protease solution (protease in assay buffer). The final assay concentration of the human plasma kallikrein was nominally 25 pM, the 11 compound concentrations in the dilution series were in the range form 1 nM to 100 uM. After 1 hour of pre-incubation at room temperature, the reactions were started by the addition of 12.5 ul substrate solution (in assay buffer, final assay concentration was 0.5 uM). After the addition of the substrate solution, the final DMSO concentration in the assay was 0.9% (v/v).
Type: cell-free

Amino acid sequences for entries named in this document (tags omitted). Residues count along the entry.
UniProt P03952, 20-390 limits assumed: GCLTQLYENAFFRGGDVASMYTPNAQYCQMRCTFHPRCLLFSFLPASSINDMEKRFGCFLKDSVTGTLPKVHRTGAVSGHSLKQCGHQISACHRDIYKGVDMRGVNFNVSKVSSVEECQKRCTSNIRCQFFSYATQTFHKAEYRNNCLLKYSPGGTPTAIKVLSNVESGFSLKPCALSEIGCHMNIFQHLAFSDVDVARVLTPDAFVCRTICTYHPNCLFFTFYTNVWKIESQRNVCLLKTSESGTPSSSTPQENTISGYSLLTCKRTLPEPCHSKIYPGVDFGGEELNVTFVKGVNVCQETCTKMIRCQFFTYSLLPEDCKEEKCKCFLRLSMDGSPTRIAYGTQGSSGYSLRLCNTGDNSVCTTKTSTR
UniProt P03952, 391-638 limits assumed: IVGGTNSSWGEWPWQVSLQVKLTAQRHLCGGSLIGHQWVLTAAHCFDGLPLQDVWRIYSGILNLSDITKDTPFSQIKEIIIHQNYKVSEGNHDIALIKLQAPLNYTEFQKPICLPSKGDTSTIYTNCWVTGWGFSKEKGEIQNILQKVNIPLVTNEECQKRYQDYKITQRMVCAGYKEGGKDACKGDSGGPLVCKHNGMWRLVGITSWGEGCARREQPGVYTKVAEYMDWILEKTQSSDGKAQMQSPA

SMILES: Cc1cc(C)n(Cc2ccc(Cn3cc(C(=O)NCc4c(C)cc(N)nc4C)cn3)cc2)n1
- IC50: 0.134 nM

SMILES: Cc1cc(N)nc(C)c1CNC(=O)c1cn(Cc2ccc(Cn3nccc3C)cc2)nn1
- IC50: 0.1 nM

— ChEMBL document CHEMBL3886577, “N-((6-amino-pyridin-3-yl)methyl)-heteroaryl-carboxamides” (2016)
